# Cyclic peptide permeability, from CycPeptMPDB

Data: CycPeptMPDB; original report Nielsen et al. 2015, doi:10.1002/cbic.201500441.

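Lipid, pH, incubation time, direction and concentration are not recorded in the data file. The list need not hold all peptides of the study. Peptides that the database sets to -10, its floor, are left out.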

PAMPA measures passive passage through an artificial lipid membrane.
Permeability is given as log10 of P in cm/s; higher (less negative) is more permeable.
Entries marked < or ≤ lay at or below the stated limit.

For CC(C)C[C@@H]1NC(=O)[C@H](CC(C)C)N(C)C(=O)[C@H]2CCCN2C(=O)[C@H](CC(C)C)NC(=O)[C@H](Cc2ccc(O)cc2)N(C)C(=O)[C@H]2CCCN2C1=O the data give PAMPA -5.17 (log10 cm/s). CC(C)C[C@@H]1NC(=O)[C@H](Cc2ccc(O)cc2)N(C)C(=O)[C@@H](CC(C)C)N(C)C(=O)[C@H](CC(C)C)NC(=O)[C@H](CC(C)C)N(C)C(=O)[C@@H](CC(C)C)N(C)C1=O has PAMPA < -7.00 (log10 cm/s).